Assay: solvent given as SMILES

Structure (SMILES)	solvation free energy, 298 K (in Brc1ccccc1) [kcal/mol]	solvation free energy, 298 K (in CC(C)=O) [kcal/mol]	solvation free energy, 298 K (in CCCCCCCCO) [kcal/mol]	solvation free energy, 298 K (in CN(C)C=O) [kcal/mol]	solvation free energy, 298 K (in COC(C)=O) [kcal/mol]	solvation free energy, 298 K (in ClC(Cl)(Cl)Cl) [kcal/mol]	solvation free energy, 298 K (in ClC(Cl)Cl) [kcal/mol]	solvation free energy, 298 K (in Clc1ccccc1) [kcal/mol]	solvation free energy, 298 K (in Ic1ccccc1) [kcal/mol]	solvation free energy, 298 K (in N#Cc1ccccc1) [kcal/mol]	solvation free energy, 298 K (in O) [kcal/mol]	solvation free energy, 298 K (in C1CCOC1) [kcal/mol]	solvation free energy, 298 K (in CCCCCC) [kcal/mol]	solvation free energy, 298 K (in CCCCCCCC) [kcal/mol]	solvation free energy, 298 K (in CCCCCCCCCCCCCCCC) [kcal/mol]	solvation free energy, 298 K (in CCCCO) [kcal/mol]	solvation free energy, 298 K (in CO) [kcal/mol]	solvation free energy, 298 K (in ClCCCl) [kcal/mol]
CCl	-2.17	-2.52	-1.9	-2.37	-2.47	-2.2	-2.48	-2.21	-2.1	-2.19	-0.55							
CCCCOCCCC			-5.33			-6.28					-0.8	-6.13	-5.91	-5.78	-5.39	-5.35	-4.97	-5.98

Reference: the CombiSolv-Exp solvation set (Vermeire and Green 2021)
